# Results as given in US11225469B2, “Inhibitors of phosphoglycerate dehydrogenase (PHGDH) and uses thereof” (Whitehead Institute for Biomedical Research, priority 2015, dated 2022).
# Chains of the proteins cited; added tags and fusions are not shown.
# UniProt O43175, whole entry: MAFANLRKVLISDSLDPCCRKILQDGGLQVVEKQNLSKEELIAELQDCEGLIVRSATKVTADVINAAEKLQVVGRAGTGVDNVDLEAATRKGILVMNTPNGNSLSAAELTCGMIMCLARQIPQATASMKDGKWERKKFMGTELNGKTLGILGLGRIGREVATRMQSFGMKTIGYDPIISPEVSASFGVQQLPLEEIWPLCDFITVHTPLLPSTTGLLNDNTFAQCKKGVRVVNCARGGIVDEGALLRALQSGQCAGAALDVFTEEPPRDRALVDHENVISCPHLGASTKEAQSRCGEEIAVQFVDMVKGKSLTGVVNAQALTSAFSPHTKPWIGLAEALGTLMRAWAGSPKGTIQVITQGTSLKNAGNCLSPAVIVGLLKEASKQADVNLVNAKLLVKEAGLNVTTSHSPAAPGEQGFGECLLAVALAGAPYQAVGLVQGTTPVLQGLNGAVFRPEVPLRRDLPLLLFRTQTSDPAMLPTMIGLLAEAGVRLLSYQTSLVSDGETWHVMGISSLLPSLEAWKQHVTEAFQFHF
# Target: PHGDH (Homo sapiens (Human), UniProt O43175)
# Assay: PHGDH inhibition, coupled assay with PSAT1/PSPH and diaphorase/resazurin readout
# Assay type: biochemical
# Conditions: read-out: PHGDH IC50; Table E9; mixture with PSAT1, PSPH; diaphorase/resazurin reporter
smiles,measurement,value
Cc1cc(C)nc(NC(=S)N2CCN(c3cccc([N+](=O)[O-])c3)CC2)c1,IC50,5 to 10 µM
